Assay results: patent US7795378B2, “Peptide compositions for treatment of sexual dysfunction” (Palatin Technologies, Inc., priority 2002, dated 2010)

Protein sequences, listed by entry. Tags and fused reporters are not part of them.
UniProt P32245, whole entry: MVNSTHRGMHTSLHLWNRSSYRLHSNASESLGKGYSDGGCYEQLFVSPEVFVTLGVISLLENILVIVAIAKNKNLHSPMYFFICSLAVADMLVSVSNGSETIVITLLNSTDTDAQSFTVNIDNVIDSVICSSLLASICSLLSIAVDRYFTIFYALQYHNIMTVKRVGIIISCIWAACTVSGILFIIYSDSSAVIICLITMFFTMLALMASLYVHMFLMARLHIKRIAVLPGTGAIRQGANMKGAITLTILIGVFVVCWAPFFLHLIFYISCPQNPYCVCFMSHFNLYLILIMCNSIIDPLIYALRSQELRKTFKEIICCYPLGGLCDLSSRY

Target: T1, hMC4-R (transfected HEK-293 cells) (Homo sapiens, UniProt P32245)
T1 construct: expressed in transfected cells
Experiment: Melanocortin receptor-specific functional activity (cAMP) assay
Type: cell-based
Conditions: HEK-293 cells expressing hMC4-R
Method: Functional assays to determine agonist or antagonist status of a test peptide may be conducted by any means known in the art. In one method, a CAMP assay is performed. Human MC4-R cells are grown to confluence in 96 well plates (plating approximately 250,000 cells per well). Identical sets of cells in triplicate are treated with 0.2 mM isobutylmethylxanthine (IBMX) and the chosen concentration of the peptide or alternatively the peptide in the presence of 20 nM NDP-MSH. Cells similarly treated but with only 20 nM NDP-MSH serve as positive control in a volume of 200 μL. A buffer blank, as a negative control, is also included. Incubation is for one hour at 37° C. after which the cells are lysed by the addition of 50 μL of a cell lysis buffer. Total CAMP accumulated in 250 μL of this solution is quantitated using a commercially available low pH cAMP assay kit (Amersham BioSciences) by the procedure specified by the kit supplier. Any peptide (not one of this invention) showing CAMP accumulation in the same range as or higher than the positive control (buffer blank in the presence of α-MSH) is considered to be an agonist. A peptide showing accumulation in the same range as the negative control (buffer blank in the absence of α-MSH) is ineffective at the test concentration if the result is similar to the positive control where α-MSH is also present in the assay. […]

[Nle^4, D-Phe^7]-α-MSH [NDP]
stimulation of intracellular cAMP production: caused production and accumulation of intracellular CAMP
